From ChEMBL document CHEMBL1123739, “Relationships between DNA-binding kinetics and biological activity for the 9-aminoacridine-4-carboxamide class of antitumor agents” (J Med Chem, 1987)

Tests used:
Calf thymus DNA [1] = settings: Bos taurus
Calf thymus DNA [2] = settings: Bos taurus; remark: listed apart in the source
Calf thymus DNA [3] = test: Dissociation constant of poly(dG-dC)DNA binding in calf thymus; assay type: functional; settings: Bos taurus
Nucleic Acid = test: Difference between log K of (AT) and log K of (GC) DNA binding; assay type: nucleic-acid assay
Calf thymus DNA [4] = test: DNA dissociation constant was determined from calf thymus; assay type: functional; settings: Bos taurus
In short: (§1)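 Stopped-flow SDS-sequestration assay. Sonicated calf thymus DNA (400 µM base pairs) and 20 µM drug in 0.1 SHE buffer (2 mM HEPES, 10 µM EDTA, 99.4 mM NaCl, pH 7.0) were mixed 1:1 with 20 mM SDS at 20 °C. Absorbance decay was deconvoluted into exponential time constants by curve stripping. At least six runs were averaged; ratios were taken between time constants.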

Calf thymus DNA [5] = settings: Bos taurus; remark: listed apart in the source
Calf thymus DNA [6] = test: Dissociation constant of poly(dG-dC)DNA in calf thymus; assay type: functional; settings: Bos taurus
Calf thymus DNA [7] = test: DNA dissociation constant from calf thymus; assay type: functional; settings: Bos taurus
In short: as §1

CN(C)CCNC(=O)c1cccc2c(N)c3ccccc3nc12
Time constant T1 (Calf thymus DNA [1]): 4
Time constant T2 (Calf thymus DNA [2]): 8
Time constant T1 (Calf thymus DNA [3]): 3
Log K delta (Nucleic Acid): 0.35
Time constant T2 (Calf thymus DNA [4]): 28 ms
Time constant T1 (Calf thymus DNA [5]): 5
Time constant T2 (Calf thymus DNA [6]): 76
Time constant T3 (Calf thymus DNA [6]): 230
Time constant T1 (Calf thymus DNA [7]): 6 ms
Time constant T3 (Calf thymus DNA [7]): 86 ms
Time constant T4 (Calf thymus DNA [7]): 428 ms
